Two compounds from ChEMBL document CHEMBL3817780, “Structure-Based Design of 1,4-Dibenzoylpiperazines as β-Catenin/B-Cell Lymphoma 9 Protein-Protein Interaction Inhibitors” (ACS Med Chem Lett, 2016) can be followed below.

Sequences of proteins named here, by UniProt entry; tags and fusion partners are left off.
UniProt P35222, whole entry: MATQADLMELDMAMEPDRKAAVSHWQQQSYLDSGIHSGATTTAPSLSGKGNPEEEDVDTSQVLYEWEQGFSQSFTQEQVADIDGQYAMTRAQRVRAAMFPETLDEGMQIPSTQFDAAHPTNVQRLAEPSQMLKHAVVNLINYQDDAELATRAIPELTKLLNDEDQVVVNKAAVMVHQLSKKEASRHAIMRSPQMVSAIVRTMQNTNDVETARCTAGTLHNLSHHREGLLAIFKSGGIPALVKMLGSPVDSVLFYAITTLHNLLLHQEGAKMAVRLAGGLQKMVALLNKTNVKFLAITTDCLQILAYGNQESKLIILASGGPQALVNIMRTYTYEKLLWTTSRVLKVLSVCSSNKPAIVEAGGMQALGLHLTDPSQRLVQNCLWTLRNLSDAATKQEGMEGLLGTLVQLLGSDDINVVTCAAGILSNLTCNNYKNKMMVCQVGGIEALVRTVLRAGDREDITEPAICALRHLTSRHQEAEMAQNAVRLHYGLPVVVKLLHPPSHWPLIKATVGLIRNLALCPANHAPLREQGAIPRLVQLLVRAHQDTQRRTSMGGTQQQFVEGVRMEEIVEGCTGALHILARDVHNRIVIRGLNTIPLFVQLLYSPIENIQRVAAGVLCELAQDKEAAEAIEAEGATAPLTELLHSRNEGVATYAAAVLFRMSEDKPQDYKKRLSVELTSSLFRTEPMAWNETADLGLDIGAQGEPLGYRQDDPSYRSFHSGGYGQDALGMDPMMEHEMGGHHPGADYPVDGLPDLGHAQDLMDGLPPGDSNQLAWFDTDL

pKi: −log10 of the molar value.

For experiment [1], the species on record is Homo sapiens. The experiment is described as follows: Selectivity ratio of Ki for wild type beta-catenin (unknown origin)/ N-terminally biotinylated human BCL9 (350 to 375 residues) interaction to Ki for wild type beta-catenin (unknown origin)/N-terminally biotinylated human E-cadherin (824 to 887 residues) interaction.
Experiment [2] addresses beta-catenin-B-cell lymphoma 9 protein complex (Homo sapiens, UniProt P35222). Kind of experiment: Competitive inhibition of wild type beta-catenin (unknown origin) expressed in Escherichia coli BL21 DE3 interaction with N-terminally biotinylated human BCL9 (350 to 375 residues) by alpha screen assay. In outline: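 Competitive AlphaScreen binding assays run in parallel against wild-type β-catenin, one with the BCL9 partner and one with the E-cadherin partner; data given as mean ± standard deviation, n = 3.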
(Bead proximity is the source of the signal in Alpha formats.)

Consider `Cl.Cl.O=C(c1cc(F)cc(N2CCNCC2)c1)N1CCN(C(=O)c2ccc(O[C@H]3CCNC3)c(C3CCCCC3)c2)CC1`, for which, in experiment [1], the Ratio Ki worked out at 98.

In the case of `CC1CCC(c2cc(C(=O)N3CCN(C(=O)c4cc(F)cc(N5CCNCC5)c4)CC3)ccc2O[C@H]2CCNC2)CC1` (some centres not stated), the pKi (usually −log10 of the Ki, conventionally taken in molar units) in experiment [2] was 4.43.
